Laboratory results as given in paper PMC11472320, “Computationally Driven Discovery of a BCR-ABL1 Kinase Inhibitor with Activity in Multidrug-Resistant Chronic Myeloid Leukemia” (Journal of Medicinal Chemistry, 2024).

By UniProt entry, the sequences of proteins in these tests, tags left out. Where a name states a change or a piece, a line headed by the entry shows the natural chain unless it says otherwise. Residues count along the entry.
UniProt Q9UM73, 19-1620 L1196M: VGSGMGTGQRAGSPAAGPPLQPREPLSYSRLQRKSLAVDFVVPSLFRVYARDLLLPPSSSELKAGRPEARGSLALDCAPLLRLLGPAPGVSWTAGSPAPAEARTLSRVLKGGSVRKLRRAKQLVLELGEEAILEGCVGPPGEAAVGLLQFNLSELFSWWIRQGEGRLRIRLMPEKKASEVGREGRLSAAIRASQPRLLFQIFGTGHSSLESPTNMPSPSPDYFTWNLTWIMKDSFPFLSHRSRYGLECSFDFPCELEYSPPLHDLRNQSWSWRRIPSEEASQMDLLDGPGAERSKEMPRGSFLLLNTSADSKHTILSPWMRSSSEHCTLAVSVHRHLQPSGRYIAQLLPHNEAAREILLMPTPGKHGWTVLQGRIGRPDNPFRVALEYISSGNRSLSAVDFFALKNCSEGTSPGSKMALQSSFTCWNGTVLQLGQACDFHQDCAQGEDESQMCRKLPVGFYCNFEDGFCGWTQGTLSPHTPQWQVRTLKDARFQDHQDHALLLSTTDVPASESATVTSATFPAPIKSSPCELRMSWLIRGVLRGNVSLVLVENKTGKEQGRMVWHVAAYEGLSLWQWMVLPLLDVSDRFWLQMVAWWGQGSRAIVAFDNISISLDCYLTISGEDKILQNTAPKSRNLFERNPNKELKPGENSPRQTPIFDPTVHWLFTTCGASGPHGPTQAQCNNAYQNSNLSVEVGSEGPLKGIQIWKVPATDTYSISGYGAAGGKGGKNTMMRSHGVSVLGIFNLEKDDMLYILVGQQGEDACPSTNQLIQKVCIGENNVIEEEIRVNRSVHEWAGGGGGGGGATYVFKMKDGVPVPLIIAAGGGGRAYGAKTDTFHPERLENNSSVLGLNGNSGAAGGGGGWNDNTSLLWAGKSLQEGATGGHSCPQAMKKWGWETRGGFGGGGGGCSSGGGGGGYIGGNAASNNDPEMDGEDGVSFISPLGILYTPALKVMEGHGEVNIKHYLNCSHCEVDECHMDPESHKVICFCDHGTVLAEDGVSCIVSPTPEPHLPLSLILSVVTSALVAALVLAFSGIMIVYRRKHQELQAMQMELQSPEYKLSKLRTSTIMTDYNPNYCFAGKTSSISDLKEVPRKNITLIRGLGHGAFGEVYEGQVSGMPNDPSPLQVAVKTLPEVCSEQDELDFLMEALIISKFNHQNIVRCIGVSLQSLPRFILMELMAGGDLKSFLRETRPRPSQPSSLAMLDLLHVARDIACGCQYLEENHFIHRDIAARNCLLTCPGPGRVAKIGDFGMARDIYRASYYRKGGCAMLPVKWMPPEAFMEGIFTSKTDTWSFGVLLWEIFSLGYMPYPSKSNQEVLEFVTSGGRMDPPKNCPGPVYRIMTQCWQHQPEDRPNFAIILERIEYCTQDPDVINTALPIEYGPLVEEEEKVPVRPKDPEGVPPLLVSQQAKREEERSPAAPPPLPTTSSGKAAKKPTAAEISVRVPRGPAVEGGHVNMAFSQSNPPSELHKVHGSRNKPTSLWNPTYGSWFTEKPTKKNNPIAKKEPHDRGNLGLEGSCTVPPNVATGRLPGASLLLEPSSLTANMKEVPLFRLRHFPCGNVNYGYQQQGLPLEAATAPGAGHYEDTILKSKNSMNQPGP
UniProt Q9BWU1: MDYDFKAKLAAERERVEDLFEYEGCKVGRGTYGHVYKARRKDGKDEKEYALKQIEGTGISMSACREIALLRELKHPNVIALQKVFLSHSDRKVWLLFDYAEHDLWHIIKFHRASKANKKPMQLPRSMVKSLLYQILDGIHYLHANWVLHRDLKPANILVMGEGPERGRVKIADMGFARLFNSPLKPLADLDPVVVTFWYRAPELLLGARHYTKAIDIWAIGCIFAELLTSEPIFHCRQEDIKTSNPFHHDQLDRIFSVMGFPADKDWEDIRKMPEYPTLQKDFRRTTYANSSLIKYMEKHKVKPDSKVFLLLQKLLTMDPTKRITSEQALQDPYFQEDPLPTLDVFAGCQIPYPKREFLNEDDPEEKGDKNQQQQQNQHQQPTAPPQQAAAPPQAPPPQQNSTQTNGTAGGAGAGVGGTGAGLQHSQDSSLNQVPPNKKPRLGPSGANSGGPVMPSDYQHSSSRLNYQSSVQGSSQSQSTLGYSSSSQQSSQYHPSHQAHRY
UniProt Q92772: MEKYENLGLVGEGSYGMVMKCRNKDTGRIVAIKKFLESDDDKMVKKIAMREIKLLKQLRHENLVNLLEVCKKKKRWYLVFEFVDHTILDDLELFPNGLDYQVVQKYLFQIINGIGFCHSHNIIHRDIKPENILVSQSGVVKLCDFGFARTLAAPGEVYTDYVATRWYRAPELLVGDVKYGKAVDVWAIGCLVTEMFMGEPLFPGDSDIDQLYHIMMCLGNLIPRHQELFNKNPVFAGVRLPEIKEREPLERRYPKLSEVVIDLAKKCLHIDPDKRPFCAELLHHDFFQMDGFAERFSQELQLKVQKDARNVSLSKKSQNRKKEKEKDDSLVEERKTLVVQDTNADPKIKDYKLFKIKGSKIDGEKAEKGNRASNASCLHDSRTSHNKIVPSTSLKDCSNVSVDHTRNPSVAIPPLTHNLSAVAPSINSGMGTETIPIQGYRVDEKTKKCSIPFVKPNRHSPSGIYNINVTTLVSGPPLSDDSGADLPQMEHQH
UniProt Q92630: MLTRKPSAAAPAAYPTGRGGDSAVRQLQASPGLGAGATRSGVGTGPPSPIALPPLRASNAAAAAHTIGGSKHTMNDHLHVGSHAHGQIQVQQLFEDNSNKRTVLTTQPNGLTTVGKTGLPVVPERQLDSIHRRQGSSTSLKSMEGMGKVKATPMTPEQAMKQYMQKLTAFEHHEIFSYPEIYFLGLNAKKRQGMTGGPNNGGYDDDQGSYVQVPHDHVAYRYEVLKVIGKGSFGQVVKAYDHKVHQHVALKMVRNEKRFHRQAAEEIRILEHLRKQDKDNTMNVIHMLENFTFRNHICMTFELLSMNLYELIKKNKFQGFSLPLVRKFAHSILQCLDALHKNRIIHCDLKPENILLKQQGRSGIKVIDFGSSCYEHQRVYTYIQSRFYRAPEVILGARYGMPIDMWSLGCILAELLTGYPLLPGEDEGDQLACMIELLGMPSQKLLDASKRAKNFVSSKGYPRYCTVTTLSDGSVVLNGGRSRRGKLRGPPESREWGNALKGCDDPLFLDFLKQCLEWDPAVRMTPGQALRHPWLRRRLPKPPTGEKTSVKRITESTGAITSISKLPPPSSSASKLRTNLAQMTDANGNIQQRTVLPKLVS
UniProt O94921: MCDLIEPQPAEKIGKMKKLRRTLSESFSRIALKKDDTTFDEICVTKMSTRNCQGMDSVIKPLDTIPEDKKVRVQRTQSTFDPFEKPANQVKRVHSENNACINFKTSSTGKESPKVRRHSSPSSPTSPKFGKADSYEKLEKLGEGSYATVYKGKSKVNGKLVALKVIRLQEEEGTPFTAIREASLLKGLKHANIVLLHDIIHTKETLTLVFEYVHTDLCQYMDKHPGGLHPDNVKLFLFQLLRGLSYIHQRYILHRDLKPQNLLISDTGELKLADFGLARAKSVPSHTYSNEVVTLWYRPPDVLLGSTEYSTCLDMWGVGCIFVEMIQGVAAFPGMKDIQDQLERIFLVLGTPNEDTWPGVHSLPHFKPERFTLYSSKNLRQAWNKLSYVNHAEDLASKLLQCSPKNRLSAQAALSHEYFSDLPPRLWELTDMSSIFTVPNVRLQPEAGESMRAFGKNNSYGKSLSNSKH
UniProt Q13976: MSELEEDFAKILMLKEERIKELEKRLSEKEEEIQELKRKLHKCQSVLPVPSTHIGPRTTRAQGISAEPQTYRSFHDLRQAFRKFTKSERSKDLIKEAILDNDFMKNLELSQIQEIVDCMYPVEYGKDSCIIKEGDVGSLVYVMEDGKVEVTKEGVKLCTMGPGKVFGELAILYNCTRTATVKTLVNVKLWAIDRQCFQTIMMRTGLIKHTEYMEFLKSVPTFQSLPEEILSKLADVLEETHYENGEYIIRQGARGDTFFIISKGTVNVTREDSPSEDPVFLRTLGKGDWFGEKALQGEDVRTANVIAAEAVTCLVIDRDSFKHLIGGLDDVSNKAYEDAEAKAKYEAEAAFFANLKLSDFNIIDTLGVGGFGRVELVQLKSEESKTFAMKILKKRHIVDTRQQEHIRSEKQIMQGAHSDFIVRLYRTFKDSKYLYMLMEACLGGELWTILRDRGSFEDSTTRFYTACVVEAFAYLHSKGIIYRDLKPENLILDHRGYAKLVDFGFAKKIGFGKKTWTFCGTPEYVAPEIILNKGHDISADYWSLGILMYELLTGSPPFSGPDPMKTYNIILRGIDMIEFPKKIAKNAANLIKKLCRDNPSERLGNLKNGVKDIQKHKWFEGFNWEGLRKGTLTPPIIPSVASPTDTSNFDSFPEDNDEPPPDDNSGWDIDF
UniProt P07949, 29-1114 V804L: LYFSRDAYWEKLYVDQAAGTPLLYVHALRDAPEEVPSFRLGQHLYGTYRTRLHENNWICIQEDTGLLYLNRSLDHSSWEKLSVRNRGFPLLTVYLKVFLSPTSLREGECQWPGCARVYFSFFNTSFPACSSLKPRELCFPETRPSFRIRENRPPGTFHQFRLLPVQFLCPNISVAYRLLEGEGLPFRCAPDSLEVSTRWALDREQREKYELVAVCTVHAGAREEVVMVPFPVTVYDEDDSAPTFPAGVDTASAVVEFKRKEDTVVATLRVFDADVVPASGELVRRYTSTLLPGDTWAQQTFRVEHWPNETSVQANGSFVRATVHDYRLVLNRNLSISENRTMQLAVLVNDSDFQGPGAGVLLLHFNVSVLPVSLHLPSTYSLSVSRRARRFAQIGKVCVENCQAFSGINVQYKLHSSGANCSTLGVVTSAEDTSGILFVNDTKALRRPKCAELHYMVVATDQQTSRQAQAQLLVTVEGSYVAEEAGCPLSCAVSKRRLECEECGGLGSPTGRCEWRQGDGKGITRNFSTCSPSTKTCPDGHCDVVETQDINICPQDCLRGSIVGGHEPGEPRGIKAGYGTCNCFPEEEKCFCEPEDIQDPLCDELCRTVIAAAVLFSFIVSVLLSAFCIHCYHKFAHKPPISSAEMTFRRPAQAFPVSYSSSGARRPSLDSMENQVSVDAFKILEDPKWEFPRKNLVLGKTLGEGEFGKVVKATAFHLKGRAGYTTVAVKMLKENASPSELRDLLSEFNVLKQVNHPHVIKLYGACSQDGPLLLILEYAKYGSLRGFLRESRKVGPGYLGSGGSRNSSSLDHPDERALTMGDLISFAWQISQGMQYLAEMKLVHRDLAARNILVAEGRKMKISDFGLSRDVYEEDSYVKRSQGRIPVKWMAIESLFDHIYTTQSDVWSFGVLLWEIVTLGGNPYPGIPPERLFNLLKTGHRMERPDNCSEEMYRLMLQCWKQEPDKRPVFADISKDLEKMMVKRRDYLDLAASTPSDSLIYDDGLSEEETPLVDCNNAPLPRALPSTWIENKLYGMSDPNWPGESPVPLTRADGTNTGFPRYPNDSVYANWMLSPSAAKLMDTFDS
UniProt P07949, 29-1114 V804M: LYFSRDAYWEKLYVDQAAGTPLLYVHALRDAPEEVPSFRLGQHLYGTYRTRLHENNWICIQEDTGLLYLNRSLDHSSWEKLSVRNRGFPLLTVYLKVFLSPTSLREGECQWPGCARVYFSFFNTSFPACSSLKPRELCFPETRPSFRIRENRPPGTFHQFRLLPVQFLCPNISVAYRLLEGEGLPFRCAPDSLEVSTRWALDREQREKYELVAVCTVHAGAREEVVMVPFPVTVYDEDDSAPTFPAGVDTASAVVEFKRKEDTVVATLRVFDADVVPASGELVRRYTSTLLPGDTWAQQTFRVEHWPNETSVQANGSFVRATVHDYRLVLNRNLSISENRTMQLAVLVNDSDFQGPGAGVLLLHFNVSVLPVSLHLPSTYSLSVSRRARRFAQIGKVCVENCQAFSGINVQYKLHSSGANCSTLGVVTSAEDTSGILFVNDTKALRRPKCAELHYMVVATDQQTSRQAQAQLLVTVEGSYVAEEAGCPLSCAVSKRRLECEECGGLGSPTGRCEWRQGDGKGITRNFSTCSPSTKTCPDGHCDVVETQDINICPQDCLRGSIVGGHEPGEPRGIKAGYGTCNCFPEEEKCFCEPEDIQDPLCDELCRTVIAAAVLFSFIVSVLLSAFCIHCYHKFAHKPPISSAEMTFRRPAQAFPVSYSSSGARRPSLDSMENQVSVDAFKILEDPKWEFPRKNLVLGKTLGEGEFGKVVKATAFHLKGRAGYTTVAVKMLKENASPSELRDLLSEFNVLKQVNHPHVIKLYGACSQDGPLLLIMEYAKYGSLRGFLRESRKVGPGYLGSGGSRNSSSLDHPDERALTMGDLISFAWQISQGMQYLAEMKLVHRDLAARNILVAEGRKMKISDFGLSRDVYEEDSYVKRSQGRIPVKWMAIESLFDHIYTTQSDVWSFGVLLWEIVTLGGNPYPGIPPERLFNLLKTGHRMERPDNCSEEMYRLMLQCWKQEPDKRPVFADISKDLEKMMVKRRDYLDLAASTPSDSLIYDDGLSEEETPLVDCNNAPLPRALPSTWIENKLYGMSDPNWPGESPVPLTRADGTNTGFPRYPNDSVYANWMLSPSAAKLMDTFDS

Key:
Assay in all cases: biochemical
Conditions in all cases: read-out: Percent Control
ACVR2A = ACVR2A (Homo sapiens, UniProt P27037)
ACVRL1 = ACVRL1 (Homo sapiens, UniProt P37023)
ALK(L1196M) = ALK(L1196M) (Homo sapiens, UniProt Q9UM73, L1196M)
AURKB = AURKB (Homo sapiens, UniProt Q96GD4)
BMPR2 = BMPR2 (Homo sapiens, UniProt Q13873)
CAMK2G = CAMK2G (Homo sapiens, UniProt Q13555)
CDK11 = CDK11 (Homo sapiens, UniProt Q9BWU1)
CDK4-cyclinD1 = CDK4-cyclinD1 (Homo sapiens, UniProt P11802)
CDKL2 = CDKL2 (Homo sapiens, UniProt Q92772)
DDR2 = DDR2 (Homo sapiens, UniProt Q16832)
DRAK1 = DRAK1 (Homo sapiens, UniProt Q9UEE5)
DYRK2 = DYRK2 (Homo sapiens, UniProt Q92630)
EGFR(L747-T751del,Sins) = EGFR(L747-T751del,Sins) (Homo sapiens, UniProt P00533, DEL747-750/T751S)
EPHA8 = EPHA8 (Homo sapiens, UniProt P29322)
ERBB2 = ERBB2 (Homo sapiens, UniProt P04626)
FES = FES (Homo sapiens, UniProt P07332)
FYN = FYN (Homo sapiens, UniProt P06241)
GSK3B = GSK3B (Homo sapiens, UniProt P49841)
ICK = ICK (Homo sapiens, UniProt Q9UPZ9)
INSRR = INSRR (Homo sapiens, UniProt P14616)
MAP3K15 = MAP3K15 (Homo sapiens, UniProt Q6ZN16)
MARK1 = MARK1 (Homo sapiens, UniProt Q9P0L2)
MEK1 = MEK1 (Homo sapiens, UniProt Q02750)
MEK6 = MEK6 (Homo sapiens, UniProt P52564)
MELK = MELK (Homo sapiens, UniProt Q14680)
MLK3 = MLK3 (Homo sapiens, UniProt Q16584)
MYO3B = MYO3B (Homo sapiens, UniProt Q8WXR4)
NEK11 = NEK11 (Homo sapiens, UniProt Q8NG66)
NEK3 = NEK3 (Homo sapiens, UniProt P51956)
NEK9 = NEK9 (Homo sapiens, UniProt Q8TD19)
NIK = NIK (Homo sapiens, UniProt Q99558)
p38-gamma = p38-gamma (Homo sapiens, UniProt P53778)
PCTK1 = PCTK1 (Homo sapiens, UniProt Q00536)
PDPK1 = PDPK1 (Homo sapiens, UniProt O15530)
PFTK1 = PFTK1 (Homo sapiens, UniProt O94921)
PRKG1 = PRKG1 (Homo sapiens, UniProt Q13976)
PRKX = PRKX (Homo sapiens, UniProt P51817)
RET(V804L) = RET(V804L) (Homo sapiens, UniProt P07949, V804L)
RET(V804M) = RET(V804M) (Homo sapiens, UniProt P07949, V804M)
RIPK4 = RIPK4 (Homo sapiens, UniProt P57078)
[1] = target: RSK2(Kin.Dom.2-C-terminal) (Homo sapiens, UniProt P51812)
STK36 = STK36 (Homo sapiens, UniProt Q9NRP7)
YANK3 = YANK3 (Homo sapiens, UniProt Q86UX6)

## COc1cc2c(Nc3ccc(Cl)c(OC)n3)c(C#N)cnc2cc1OCCON1CCN(C)CC1 [16a, 4-((5-Chloro-6-methoxypyridin-2-yl)amino)-6-methoxy-7-(2-((4-methylpiperazin-1-yl)oxy)ethoxy)quinoline-3-carbonitrile]
ACVR2A
  remaining activity at 1 µM: 100%
ACVRL1
  remaining activity at 1 µM: 100%
ALK(L1196M)
  remaining activity at 1 µM: 10%
AURKB
  remaining activity at 1 µM: 100%
BMPR2
  remaining activity at 1 µM: 29%
CAMK2G
  remaining activity at 1 µM: 55%
CDK11
  remaining activity at 1 µM: 99%
CDK4-cyclinD1
  remaining activity at 1 µM: 70%
CDKL2
  remaining activity at 1 µM: 39%
DDR2
  remaining activity at 1 µM: 19%
DRAK1
  remaining activity at 1 µM: 91%
DYRK2
  remaining activity at 1 µM: 92%
EGFR(L747-T751del,Sins)
  remaining activity at 1 µM: 4.5%
EPHA8
  remaining activity at 1 µM: 1.1%
ERBB2
  remaining activity at 1 µM: 7%
FES
  remaining activity at 1 µM: 14%
FYN
  remaining activity at 1 µM: 11%
GSK3B
  remaining activity at 1 µM: 100%
ICK
  remaining activity at 1 µM: 100%
INSRR
  remaining activity at 1 µM: 90%
MAP3K15
  remaining activity at 1 µM: 100%
MARK1
  remaining activity at 1 µM: 43%
MEK1
  remaining activity at 1 µM: 0%
MEK6
  remaining activity at 1 µM: 46%
MELK
  remaining activity at 1 µM: 65%
MLK3
  remaining activity at 1 µM: 12%
MYO3B
  remaining activity at 1 µM: 32%
NEK11
  remaining activity at 1 µM: 61%
NEK3
  remaining activity at 1 µM: 81%
NEK9
  remaining activity at 1 µM: 87%
NIK
  remaining activity at 1 µM: 18%
p38-gamma
  remaining activity at 1 µM: 97%
PCTK1
  remaining activity at 1 µM: 100%
PDPK1
  remaining activity at 1 µM: 100%
PFTK1
  remaining activity at 1 µM: 95%
PRKG1
  remaining activity at 1 µM: 100%
PRKX
  remaining activity at 1 µM: 100%
RET(V804L)
  remaining activity at 1 µM: 70%
RET(V804M)
  remaining activity at 1 µM: 59%
RIPK4
  remaining activity at 1 µM: 100%
[1]
  remaining activity at 1 µM: 100%
STK36
  remaining activity at 1 µM: 5.5%
YANK3
  remaining activity at 1 µM: 79%
